Data: publication PMC6624021
pKd: −log10 of the molar value.

Key:
[1] = target: pLAT → N-WASP condensates (human); assay: TIRF microscopy of rhodamine-actin filaments recruited to supported lipid bilayers; LAT condensates on bilayers without ezrin ABD; fluorescence of recruited actin against the concentration of actin filaments in solution, fitted to a Hill equation (Specific Binding with a Hill slope, GraphPad Prism); effective dissociation constants
[2] = target: pLAT → Nck condensates (human); assay: as above

Substance: actin filaments (from UniProt P68135 1-377) (natural protein)
- pKd [1]: 6.55
- pKd [2]: 6.39
